Measured values: patent US7063946B2, “Methods, reagents, kits and apparatus for protein function analysis” (Meso Scale Technologies, LLC., priority 2001, dated 2006)

The chains behind the UniProt entries cited, without tags or fusion partners. Where a name states a change or a piece, a line headed by the entry shows the natural chain unless it says otherwise.
UniProt Q06187: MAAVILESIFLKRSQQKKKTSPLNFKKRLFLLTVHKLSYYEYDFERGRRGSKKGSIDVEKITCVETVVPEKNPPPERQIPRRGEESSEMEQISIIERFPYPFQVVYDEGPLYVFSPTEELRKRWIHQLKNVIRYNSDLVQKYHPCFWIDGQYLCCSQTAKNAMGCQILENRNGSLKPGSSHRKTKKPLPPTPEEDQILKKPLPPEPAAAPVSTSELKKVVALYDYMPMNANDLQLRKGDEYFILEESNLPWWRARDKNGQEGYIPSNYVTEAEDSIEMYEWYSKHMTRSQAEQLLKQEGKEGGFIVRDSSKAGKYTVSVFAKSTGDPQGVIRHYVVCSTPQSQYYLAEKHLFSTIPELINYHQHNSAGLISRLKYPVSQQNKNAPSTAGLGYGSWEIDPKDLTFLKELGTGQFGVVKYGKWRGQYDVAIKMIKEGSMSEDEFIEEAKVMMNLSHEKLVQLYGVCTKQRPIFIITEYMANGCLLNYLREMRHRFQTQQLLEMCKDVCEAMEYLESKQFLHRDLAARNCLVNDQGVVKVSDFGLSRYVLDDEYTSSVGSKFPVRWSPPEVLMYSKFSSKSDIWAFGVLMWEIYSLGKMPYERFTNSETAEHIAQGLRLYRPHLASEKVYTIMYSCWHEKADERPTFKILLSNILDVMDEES

Columns and labels:
BTK [1] = target: T1, BTK (Homo sapiens, UniProt Q06187); assay: Kinase inhibitor profiling, pEY phosphorylation; format: biochemical
T1 construct: specificity data for proteins generated from a library of eighteen full-length clones; host or cells: rabbit reticulocyte lysate, TnT coupled in vitro transcription/translation (cell-free)

BTK [2] = target: T1, BTK; assay: Kinase inhibitor profiling, autophosphorylation; format: biochemical

## C/C(O)=C(\C#N)C(=O)Nc1cc(Br)ccc1Br [LFM-A13]
BTK [1]
  Inhibition specificity towards pEY phosphorylation at 10X IC50, BTK: M (medium inhibition (“M”=between 25 to 50% of the activity remaining))
BTK [2]
  Inhibition specificity towards Autophosphorylation at 10X IC50, BTK: L (low inhibition (“L”=between 50–75% of the activity remaining))
